The source of these data is PubChem BioAssay AID651596 (Sanford-Burnham Center for Chemical Genomics, 2012).

Protein sequences, listed by entry. Tags and fused reporters are not part of them.
UniProt O14763, whole entry, looked up: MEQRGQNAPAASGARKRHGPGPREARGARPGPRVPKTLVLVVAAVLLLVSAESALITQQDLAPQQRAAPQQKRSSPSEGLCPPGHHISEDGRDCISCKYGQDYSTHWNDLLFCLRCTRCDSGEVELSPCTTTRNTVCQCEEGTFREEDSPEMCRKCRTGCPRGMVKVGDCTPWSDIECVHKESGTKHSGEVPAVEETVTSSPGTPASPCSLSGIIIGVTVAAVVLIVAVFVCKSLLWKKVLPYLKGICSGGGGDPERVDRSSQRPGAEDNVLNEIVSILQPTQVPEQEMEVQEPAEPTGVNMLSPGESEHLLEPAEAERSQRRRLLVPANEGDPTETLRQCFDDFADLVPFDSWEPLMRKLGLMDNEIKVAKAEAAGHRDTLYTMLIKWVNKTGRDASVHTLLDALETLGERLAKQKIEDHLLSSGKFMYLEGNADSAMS

The list shows a part of the results, in another mix than the full data.

The experiment deals with Tumor necrosis factor receptor superfamily member 10B (Homo sapiens) (UniProt O14763). The experiment in a line: viability loss of caspase-8 NB7 cells with TRAIL – with/without TRAIL, luminescence panel, confirmation (AID 651596). Particulars: NB7 neuroblastoma + caspase-8, TRAIL sensitization, NB7 Caspase-8, mean of runs, at 10 µM, stronger effect = higher value.
`CCCCn1nnnc1C(c1cc2ccccc2o1)N1CCC(n2c(=O)[nH]c3ccccc32)CC1` (stereo unspecified): the activity is 30.5%.
